Data published in patent US6447754B1, “Oral rinse methods and compositions” (AkPharma Inc., priority 2000, dated 2002).

Assays:
[1] = in water; cited from earlier work
[2] = Solubility of CGP in water; assay type: physicochemical; conditions: compared to other calcium salts
Method: CGP is odorless, almost tasteless, and forms a fine, slightly hygroscopic powder. CGP may also be formed into tablets, and may be dissolved into water. The solubility of CGP is about 1 gram in about 50 mL of water. […] Thus, CGP is known in the art to be useful as a dietary supplement for calcium and phosphorus and/or phosphate, where CGP contains 19 wt % calcium.
The CGP may be used alone or in combination with other calcium salts, such as calcium carbonate, calcium acetate, calcium oxide, calcium hydroxide, calcium phosphate, calcium lactate and calcium citrate. As CGP is relatively expensive, combining CGP with one or more calcium salts such as listed above affords a less expensive composition that may be used in the present invention. However, the combination of CGP and one or more additional calcium salts may have solubility properties that are very different from that of CGP alone.

**Q.** Which results are given for “1,2,3-propanetriol, mono(dihydrogen phosphate) calcium salt (1:1) [CGP]”?
**A.** solubility [1]: about 1 gram in about 50 mL of water; dissolution behaviour in aqueous solution [2]: readily dissolves, and stays dissolved
